Reference: PMC12736141, “New Quinazolin-4(3H)-one Derivatives as Potential Antitumoral Compounds: Synthesis, In Vitro Cytotoxicity Against the HepG2 Cell Line, and In Silico VEGFR-2 Targeting-Based Studies” (Molecules, 2025)

System: human hepatocellular carcinoma (HepG2)
Test: MTT cytotoxicity assay on HepG2 cells
Type: cell-based
Conditions: 48 h; SI = IC50 BJ/IC50 HepG2
Description: Compounds 5a–c were dissolved in dimethylsulfoxide (DMSO) at an initial concentration of 10 mM, which was diluted 10 times with the characteristic medium and placed on plates at final concentrations ranging from 12.5 to 150 μM. The cells were seeded on plates of 96 wells at a density of 1 × 10^4 cells per well and incubated for 48 h. The culture medium was removed, and then 100 µL MTT (3-(4,5-dimethylthiazol-2-yl)-2,5-diphenyltetrazolium bromide) was added for 1 h. After that, it was removed, and 150 µL of pure dimethylsulfoxide (DMSO) was added. The samples were read using an ELISA Reader (BioTek, Winooski, VT, USA) at 570 nm. […] All determinations were made in triplicate.
The half-maximal inhibitory concentration (IC50) values were calculated to evaluate the potency of compounds 5a–c by fitting the investigational data with a 4-parameter logistic curve to obtain the dose-effect curves. The experimental IC50 results are expressed as mean values ± standard deviation (SD) of the three biological replicates.
Two-way analysis of variance (ANOVA) with a post hoc Bonferroni test was used to statistically examine the relative cell viability (%), compared to the negative control (NC), which was 100%. Data were analyzed using the […] software (GraphPad Prism 8.0.2. Software, La Jolla, CA, USA). […]

`CNC(=O)c1cc(Oc2ccc(NC(=O)Nc3ccc(Cl)c(C(F)(F)F)c3)cc2)ccn1` [Sorafenib, reference compound] was tested, and the “Selectivity Index (SI)” value was 1.04.
